Tested on: panel of 48 to 60 cell lines
Experiment: 5×4 combination screen with SR16388, CellTiter-Glo viability; synergy by pattern recognition
Conditions: in combination with SR16388, 5x4-T1

In the case of `S=P(N1CC1)(N1CC1)N1CC1` [Thiotepa], the “synergy (number of cell lines)” value (pattern recognition, of 60 cell lines incl. no data) was 0 and the “% synergy” value (share of cell lines with data) was 0%.
